As a reminder, the IC50 is the concentration at which inhibition is half-maximal.

Amino acid sequences for entries named in this document (tags omitted). A change or cut given only in a name is not applied to a line headed by its entry.
UniProt Q9UNQ0: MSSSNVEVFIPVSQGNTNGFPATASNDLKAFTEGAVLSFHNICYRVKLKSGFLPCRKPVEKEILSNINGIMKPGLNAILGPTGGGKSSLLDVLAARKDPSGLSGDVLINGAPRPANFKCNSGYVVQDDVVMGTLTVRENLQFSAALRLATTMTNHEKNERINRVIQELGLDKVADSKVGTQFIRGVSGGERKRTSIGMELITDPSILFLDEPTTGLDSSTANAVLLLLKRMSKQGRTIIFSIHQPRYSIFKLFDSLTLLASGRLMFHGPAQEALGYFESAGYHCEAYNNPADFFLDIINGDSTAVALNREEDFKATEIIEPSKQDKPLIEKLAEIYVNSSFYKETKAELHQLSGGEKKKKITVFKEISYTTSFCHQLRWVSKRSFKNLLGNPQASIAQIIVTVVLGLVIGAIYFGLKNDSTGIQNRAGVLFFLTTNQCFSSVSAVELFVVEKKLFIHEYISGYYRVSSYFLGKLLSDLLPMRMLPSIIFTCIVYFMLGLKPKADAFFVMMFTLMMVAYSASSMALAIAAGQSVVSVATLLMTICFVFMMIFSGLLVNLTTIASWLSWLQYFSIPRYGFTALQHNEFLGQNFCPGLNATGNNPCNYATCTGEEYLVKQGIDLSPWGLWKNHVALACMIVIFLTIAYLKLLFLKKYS

The record followed here is ChEMBL document CHEMBL1153145, “Novel lead for potent inhibitors of breast cancer resistance protein (BCRP)” (Bioorg Med Chem Lett, 2010).

The target in test [1] is T1, Broad substrate specificity ATP-binding cassette transporter ABCG2 (Homo sapiens, UniProt Q9UNQ0). In words: Inhibition of BCRP expressed in MDCK cells by pheophorbide A assay. The class given is cell-based.
In test [2] the target is T1, Broad substrate specificity ATP-binding cassette transporter ABCG2. In words: Inhibition of BCRP expressed in MCF7 MX cells by Hoechst 33342 staining. The format is cell-based.

Turning to `COc1cc2ncnc(Nc3ccc(F)c(Cl)c3)c2cc1OCCCN1CCOCC1` [GEFITINIB], the IC50 was 1260 nM in test [1] and 1100 nM in test [2].
